From patent US9872881B2, “Bone and metal targeted polymeric nanoparticles” (The Brigham and Women's Hospital, Inc., priority 2013, dated 2018)

System: bone marrow-derived human mesenchymal stem cells
Assay: ALP enzymatic activity induction in hMSCs
Format: cell-based
Method: The in vitro experiments were performed on bone marrow-derived human mesenchymal stem cells (hMSC, PT-2501, Lonza). hMSCs were cultured in normal growth media (POIETICS™ MSCGM™ BULLETKIT™ (PT-3001) Lonza), in 5% CO2 at 37° C. The cells were cultured until 70-75% confluence and were used before passage 5 for all the experiments. The cells were trypsinized (CC-3232, Lonza) and seeded in 48-well plates at the density of 5000 cells/well in normal growth media. After 24 hours, the media was replaced with the normal and osteoconductive (supplemented with 10 nM β-glycerol phosphate and 50 μg/ml ascorbic acid). […]
In order to detect the alkaline phosphatase (ALP) activity induced by the rhBMP-2, the hMSCs were seeded in 48 well plates as described above and after 24 hrs incubation in the growth medium the cells were treated with rhBMP-2 loaded NPs in normal media and osteoconductive media conditions. […] The ALP activity in hMSCs was measured using a colorimetric endpoint assay (Alkaline Phosphatase Colorimetric Assay Kit (ab83369)), which quantified the conversion of p-nitrophenol phosphate (pNPP) to yellow p-nitrophenol (pNPP) by ALP enzyme. […] After 1 h of incubation, the absorbance was read at 405 nm in a microplate reader (microplate reader, BioTEK). […]

## rhBMP2: recombinant bone morphogenic protein BMP-2 added free to the media on day 1 (positive control)
  time of peak ALP activity: > 14 days
